# ChEMBL document CHEMBL2062373, “Discovery of pyrroloaminopyrazoles as novel PAK inhibitors” (J Med Chem, 2012)
# The chains behind the UniProt entries cited, without tags or fusion partners. Where a name states a change or a piece, a line headed by the entry shows the natural chain unless it says otherwise.
# UniProt O96013: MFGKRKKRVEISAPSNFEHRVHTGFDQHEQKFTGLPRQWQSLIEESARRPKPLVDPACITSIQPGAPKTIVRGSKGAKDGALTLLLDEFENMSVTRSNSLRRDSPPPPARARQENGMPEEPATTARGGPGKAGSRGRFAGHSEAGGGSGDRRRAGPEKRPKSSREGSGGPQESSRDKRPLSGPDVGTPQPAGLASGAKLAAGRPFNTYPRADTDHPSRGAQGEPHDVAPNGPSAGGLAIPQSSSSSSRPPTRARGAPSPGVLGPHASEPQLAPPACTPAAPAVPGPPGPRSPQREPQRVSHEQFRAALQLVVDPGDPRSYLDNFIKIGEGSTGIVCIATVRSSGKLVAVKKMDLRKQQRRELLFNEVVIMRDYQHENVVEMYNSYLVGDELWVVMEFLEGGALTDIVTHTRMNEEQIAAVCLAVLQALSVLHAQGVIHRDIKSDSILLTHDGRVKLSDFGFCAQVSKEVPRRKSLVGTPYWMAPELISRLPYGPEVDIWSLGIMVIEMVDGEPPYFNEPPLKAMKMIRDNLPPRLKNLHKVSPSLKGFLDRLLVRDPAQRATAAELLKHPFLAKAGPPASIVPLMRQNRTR
# Biological target: Serine/threonine-protein kinase PAK 4 (Homo sapiens, UniProt O96013)
# Assay: Inhibition of PAK4
smiles,measurement,value
CN1CCN(C(=O)N2Cc3c(NC(=O)c4cccc(Oc5ccccc5)c4)n[nH]c3C2(C)C)[C@@H](Cc2ccccc2)C1,Ki,64 nM
